Reference: article PMC12142581
“And” between values parts separate entries of the source, which are not always exact repeats. Equal values may be shown once.

Protein sequences, listed by entry. Tags and fused reporters are not part of them.
UniProt P08173, whole entry, looked up: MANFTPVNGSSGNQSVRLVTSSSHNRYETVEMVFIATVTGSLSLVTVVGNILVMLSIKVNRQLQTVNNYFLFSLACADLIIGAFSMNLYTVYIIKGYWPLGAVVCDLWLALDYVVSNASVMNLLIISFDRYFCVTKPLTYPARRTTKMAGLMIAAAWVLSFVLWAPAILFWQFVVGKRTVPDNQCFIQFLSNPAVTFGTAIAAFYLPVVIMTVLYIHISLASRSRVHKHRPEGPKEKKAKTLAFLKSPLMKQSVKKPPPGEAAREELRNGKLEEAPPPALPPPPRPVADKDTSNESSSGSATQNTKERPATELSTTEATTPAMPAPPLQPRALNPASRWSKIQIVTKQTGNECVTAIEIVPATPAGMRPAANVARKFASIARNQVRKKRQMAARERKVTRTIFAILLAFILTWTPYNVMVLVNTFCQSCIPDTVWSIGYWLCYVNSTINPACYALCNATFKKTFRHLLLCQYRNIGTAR

Key:
human M4 (hM4) = human M4 (hM4) (Homo sapiens, UniProt P08173); test: Calcium mobilization assay, hM4/Gqi5-CHO cells, EC20 acetylcholine; conditions: for %AChMax: normalized to 100 μM acetylcholine; for EC50: read-out: hM4 EC50, PAM, EC20 ACh
[1] = Rat IV plasma:brain level (PBL) cassette; conditions: SD rat, 0.2 mg/kg IV, 0.25 h
[2] = Binding in brain homogenate, equilibrium dialysis; conditions: fraction unbound
[3] = Intrinsic clearance in liver microsomes (substrate depletion); conditions: for CLint, human / CLint, rat: microsomes; for CLhep, human / CLhep, rat: predicted from microsomal CLint
[4] = Binding in plasma, equilibrium dialysis; conditions: fraction unbound
[5] = Multi-species hepatocyte MetID; conditions: 10 µM parent, 4 h

| Structure (SMILES) | hM4 pEC50 (human M4 (hM4)) | %AChMax (human M4 (hM4)) [% AChMax] | Kp,brain:plasma [1] | Kp,uu,brain:plasma [1] | CLint, human [3] [mL/min/kg] | CLint, rat [3] [mL/min/kg] | CLhep, human [3] | CLhep, rat [3] | human fu,plasma [4] | EC50 (human M4 (hM4)) | also measured |
| --- | --- | --- | --- | --- | --- | --- | --- | --- | --- | --- | --- |
| Cc1nnc2sc3c(NC4CN(c5ncc(F)cn5)C4)ncnc3c2c1C | 7.56 | 74 | 0.37 | 0.4 | 33 | 60 | 13 mL/min/kg | 32 mL/min/kg | 0.067 |  | rat fu,brain [2]: 0.031; rat fu,plasma [4]: 0.029 |
| Cc1nnc2sc3c(N4CCCC4)ncnc3c2c1C |  | 68 | 3.19 | 1.94 | 423 | 471 | > 15 mL/min/kg and 20 mL/min/kg | > 56 mL/min/kg and 61 mL/min/kg | 0.06 |  |  |
| Cc1c(CO)nnc2sc3c(NCc4ccc(C(C)(C)O)cc4)ncnc3c12 |  | 94 |  |  |  |  |  |  |  |  | % Total Peak Area (MS) ([5]; dog hepatocytes): 22%; % Total Peak Area (MS) ([5]; minipig hepatocytes): 14%; % Total Peak Area (MS) ([5]; rat hepatocytes): 9.57% and 9.6% |
| Cc1nnc2sc3c(NCc4ccc(C(C)(C)O)cc4)ncnc3c2c1CO |  |  |  |  |  |  |  |  |  |  | % Total Peak Area (MS) ([5]; dog hepatocytes): 5.82% and 5.8%; % Total Peak Area (MS) ([5]; human hepatocytes): 1.36% and 1.4%; % Total Peak Area (MS) ([5]; minipig hepatocytes): 10.8%; % Total Peak Area (MS) ([5]; monkey hepatocytes): 6.77% and 6.8%; % Total Peak Area (MS) ([5]; rat hepatocytes): 14.3% |
| Cc1nnc2sc3c(NCc4ccc(C(=O)NC5CC(F)C5)cc4)ncnc3c2c1C (centres unmarked) | 7.58 | 96 | 0.02 | 0.04 | 42 | 66 | 14 mL/min/kg | 34 mL/min/kg | 0.009 |  | rat fu,brain [2]: 0.019; rat fu,plasma [4]: 0.008 |
| Cc1nnc2sc3c(NCc4ccc(C(C)(C)O)cc4)nccc3c2c1C | 7.66 | 98 | 0.4 | 0.73 | 40 | 224 | 14 mL/min/kg | 53 mL/min/kg | 0.008 |  | rat fu,brain [2]: 0.022; rat fu,plasma [4]: 0.012 |
| Cc1nnc2sc3c(C4CCCCC4)ncnc3c2c1C | 7.29 | 73 | 4.02 | 0.4 | 188 | 801 | > 15 mL/min/kg and 19 mL/min/kg | > 56 mL/min/kg and 64 mL/min/kg | 0.008 | < 75 nM and 51.6 nM | fold more potent (hM4) (human M4 (hM4); vs 13f): 2.3 fold; rat fu,brain [2]: 0.004; rat fu,plasma [4]: 0.04 |
| Cc1nnc2sc3c(C4CCN(C(=O)C5CC5)CC4)ncnc3c2c1C | 6.39 | 36 |  |  |  |  |  |  |  | 408 nM | fold improvement of hM4 potency (human M4 (hM4); vs 13a): 10.5 fold |
| Cc1nc(NC2CCC2)c2sc3nnc(C)c(C)c3c2n1 | <4.50 |  |  |  |  |  |  |  |  | > 30000 nM |  |
| COc1ccc(CNc2ncnc3c2sc2nnc(C)c(C)c23)cc1 | 6.61 | 88 |  |  |  |  |  |  |  | 247 nM | fold less potent (hM4) (human M4 (hM4); pyrimidine vs corresponding pyridine analog (37c, 37e)): 10 fold |
| Cc1nnc2sc3c(N4CC(C)(O)C4)ncnc3c2c1C | 6.54 | 63 |  |  |  |  |  |  |  | 286 nM |  |
| Cc1nnc2sc3c(NCc4ccc(CN5CCOCC5)cc4)ncnc3c2c1C | 6.79 | 87 |  |  |  |  |  |  |  | 162 nM |  |
| Cc1nnc2oc3c(NC4CCC4)ncnc3c2c1C | 5.82 | 55 |  |  |  |  |  |  |  |  | fold loss of functional hM4 activity (human M4 (hM4); vs 15d): 20.5 fold |
| COc1ccc(CNc2ncnc3c2oc2nnc(C)c(C)c23)cc1F | 5.97 | 36 |  |  |  |  |  |  |  | 1070 nM |  |
| Cc1nnc2sc3c(C4CC4)ncnc3c2c1C | 6.63 | 79 |  |  |  |  |  |  |  | 235 nM |  |
| Cc1nnc2sc3c(NCc4ccc(C(C)(O)C(F)(F)F)cc4)ncnc3c2c1C (centres unmarked) | 6.26 | 69 |  |  |  |  |  |  |  | 547 nM | fold loss of hM4 potency (human M4 (hM4); vs 15p): 7.5 fold |
